In ChEMBL document CHEMBL5390309, “Characterization of 2,4-Dianilinopyrimidines Against Five P. falciparum Kinases PfARK1, PfARK3, PfNEK3, PfPK9, and PfPKB” (2023):

Experiments:
[1] = Stability of the compound assessed as parent compound remaining measured after 6 hrs by LC-MS/MS analysis
[2] = Permeability of compound incubated for 16 hrs by PAMPA based LC-MS/MS analysis
[3] = Plasma protein binding in human assessed as bound fraction incubated for 6 hrs by LC/MS/MS based balanced dialysis method relative to control
HepG2 = test: Cytotoxicity against human HepG2 cells assessed as cell viability measured after 44 hrs by celltiter-fluor assay

COc1cc(N2CCOCC2)ccc1Nc1ncc(Cl)c(Nc2ccccc2NS(C)(=O)=O)n1
Stability [1]: 97%
permeability [2]: 21.4 ×10⁻⁶ cm/s
PPB [3]: 99%

CS(=O)(=O)Nc1ccccc1Nc1nc(Nc2ccc(N3CCOCC3)c(Cl)c2)ncc1Cl
Stability [1]: 98%
permeability [2]: 12 ×10⁻⁶ cm/s
PPB [3]: 99.4%
CC50 (HepG2): 2800 nM

COc1cc(N2CCOCC2)ccc1Nc1ncc(Br)c(Nc2ccccc2NS(C)(=O)=O)n1
Stability [1]: 101%
permeability [2]: 18.2 ×10⁻⁶ cm/s
PPB [3]: 99.3%
CC50 (HepG2): 9800 nM

COc1cc(N2CCOCC2)ccc1Nc1ncc(C(F)(F)F)c(Nc2ccccc2NS(C)(=O)=O)n1
Stability [1]: 103%
permeability [2]: 17.8 ×10⁻⁶ cm/s
PPB [3]: 97.6%
CC50 (HepG2): > 15000 nM

COc1cc(Nc2ncc(Cl)c(Nc3ccccc3NS(C)(=O)=O)n2)ccc1N1CCOCC1
Stability [1]: 103%
permeability [2]: 20.9 ×10⁻⁶ cm/s
PPB [3]: 98.6%
CC50 (HepG2): 1600 nM

COc1cc(N2CCOCC2)ccc1Nc1ncc(C#N)c(Nc2ccccc2NS(C)(=O)=O)n1
Stability [1]: 92%
permeability [2]: 15.1 ×10⁻⁶ cm/s
PPB [3]: 94.6%
CC50 (HepG2): > 50000 nM

Cc1cc(Nc2ncc(Cl)c(Nc3ccccc3NS(C)(=O)=O)n2)ccc1N1CCOCC1
Stability [1]: 101%
permeability [2]: 20.9 ×10⁻⁶ cm/s
PPB [3]: 99.1%
CC50 (HepG2): 2100 nM

CS(=O)(=O)Nc1ccccc1Nc1nc(Nc2ccc(N3CCOCC3)cc2)ncc1Cl
Stability [1]: 105%
permeability [2]: 19.1 ×10⁻⁶ cm/s
PPB [3]: 95.9%
CC50 (HepG2): 1500 nM

COc1cc(N2CCOCC2)ccc1Nc1ncc(C2CC2)c(Nc2ccccc2NS(C)(=O)=O)n1
Stability [1]: 101%
permeability [2]: 14.8 ×10⁻⁶ cm/s
PPB [3]: 97.6%
CC50 (HepG2): 23000 nM

COc1cc(N2CCOCC2)ccc1Nc1ncc(I)c(Nc2ccccc2NS(C)(=O)=O)n1
Stability [1]: 99%
permeability [2]: 15.5 ×10⁻⁶ cm/s
PPB [3]: 99.5%
CC50 (HepG2): > 15000 nM
